# Target: human opioid receptor-like receptor (ORL-1) (Homo sapiens, UniProt P41146)
# Sequences of proteins named here, by UniProt entry; tags and fusion partners are left off.
# UniProt P41146, whole entry: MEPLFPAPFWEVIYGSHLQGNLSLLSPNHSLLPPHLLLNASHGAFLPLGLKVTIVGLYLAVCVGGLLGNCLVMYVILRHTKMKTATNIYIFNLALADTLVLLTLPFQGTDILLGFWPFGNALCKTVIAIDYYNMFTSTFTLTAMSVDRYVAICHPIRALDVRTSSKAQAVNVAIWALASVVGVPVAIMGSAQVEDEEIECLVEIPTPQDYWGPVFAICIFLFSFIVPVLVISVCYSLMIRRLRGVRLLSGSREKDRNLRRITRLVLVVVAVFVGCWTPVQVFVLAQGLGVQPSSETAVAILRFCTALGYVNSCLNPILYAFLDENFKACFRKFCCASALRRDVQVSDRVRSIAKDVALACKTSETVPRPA
# UniProt P35372, whole entry: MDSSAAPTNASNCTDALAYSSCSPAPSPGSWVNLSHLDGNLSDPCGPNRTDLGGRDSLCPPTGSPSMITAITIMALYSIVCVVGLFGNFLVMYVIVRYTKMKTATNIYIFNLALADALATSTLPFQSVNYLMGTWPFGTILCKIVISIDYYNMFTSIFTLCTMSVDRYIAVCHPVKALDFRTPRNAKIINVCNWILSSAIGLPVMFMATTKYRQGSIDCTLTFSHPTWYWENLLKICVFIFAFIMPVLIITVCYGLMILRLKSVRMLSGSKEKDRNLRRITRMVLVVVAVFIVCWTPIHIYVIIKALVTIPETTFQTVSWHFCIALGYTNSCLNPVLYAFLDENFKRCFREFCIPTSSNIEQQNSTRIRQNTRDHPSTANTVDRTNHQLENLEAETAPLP
# Assay: Nociceptin affinity at the ORL1 receptor ([35S]GTPgS binding, membranes of recombinant HEK-293 cells)
# Settings: read-out: Nociceptin Affinity calc Ki; Table 1; ORL-1 membranes from recombinant HEK-293 cells; benzothiadiazole/benzothiadiazine series
# Protocol: Nociceptin affinity at the ORL1 receptor for preferred compounds was obtained using the following assay:
# Membranes from recombinant HEK-293 cells expressing the human opioid receptor-like receptor (ORL-1) (Receptor Biology) were prepared by lysing cells in ice-cold hypotonic buffer (2.5 mM MgCl2, 50 mM HEPES, pH 7.4) (10 ml/10 cm dish) followed by homogenization with a tissue grinder/teflon pestle. Membranes were collected by centrifugation at 30,000×g for 15 min at 4° C. and pellets resuspended in hypotonic buffer to a final concentration of 1-3 mg/ml. Protein concentrations were determined using the BioRad protein assay reagent with bovine serum albumen as standard. Aliquots of the ORL-1 receptor membranes were stored at −80° C.
# (§1) Functional SGTPgS binding assays were conducted as follows. ORL-1 membrane solution was prepared by sequentially adding final concentrations of 0.066 mg/ml ORL-1 membrane protein, […], […] and 0.20 nM [^35S]GTPgS to binding buffer (100 mM NaCl, 10 mM MgCl2, 20 mM HEPES, pH 7.4) on ice. The prepared membrane solution ([…]) was transferred to 96-shallow well polypropylene plates containing […] of 20× concentrated stock solutions of agonist prepared in DMSO. Plates were incubated for 30 min at room temperature with shaking. Reactions were terminated by rapid filtration onto 96-well Unifilter GF/B filter plates (Packard) using a 96-well tissue harvester (Brandel) and followed by three filtration washes with 200 ml ice-cold binding buffer (10 mM NaH2PO4, 10 mM Na2HPO4, pH 7.4). Filter plates were subsequently dried at 50° C. for 2-3 hours. Fifty ml/well scintillation cocktail (BetaScint; Wallac) was added and plates were counted in a Packard Top-Count for 1 min/well.
# as §1, with “20 nM” for “20 mM”
# Data was analyzed using the curve fitting functions in GraphPad PRISMÔ, v.
row,SMILES,Ki
1,O=S1(=O)Nc2ccccc2N1C1CCN(Cc2ccc(OCc3ccccc3)cc2)CC1,7.11 µM
2,O=S1(=O)Nc2ccccc2N1C1CCN(CCC(c2ccccc2)c2ccccc2)CC1,4.46 µM
3,CC(C)C1CCC(N2CCC(N3c4ccccc4CN(CC#N)S3(=O)=O)CC2)CC1 (centres unmarked),0.033 µM
4,CC(C)CCC(C)N1CCC(N2c3ccccc3NS2(=O)=O)CC1 (centres unmarked),3.59 µM
5,O=S1(=O)Nc2ccccc2N1C1CCN(C2Cc3ccccc3C2)CC1,5.67 µM
6,CCCC1CCC(N2CCC(N3c4ccccc4NS3(=O)=O)CC2)CC1 (centres unmarked),5.1 µM
7,O=S1(=O)Nc2ccccc2N1C1CCN(C2CCCCCCC2)CC1,2.3 µM
8,O=S1(=O)Nc2ccccc2N1C1CCN(C2CCc3ccccc3C2)CC1 (centres unmarked),3.45 µM

# Same assay, conditions: read-out: Nociceptin Affinity calc Ki; Table 2; ORL-1 membranes from recombinant HEK-293 cells; quinolin-2-one series
row,SMILES,Ki
1,CC(C)C1CCC(N2CCC(N3C(=O)CCc4ccccc43)CC2)CC1 (centres unmarked),0.08 µM
2,CC(C)CCC(C)N1CCC(N2C(=O)CCc3ccccc32)CC1 (centres unmarked),0.505 µM

# Target: Mu opioid receptor (Homo sapiens, UniProt P35372)
# Assay: Affinity at the μ receptor ([35S]GTPγS binding, membranes)
# Settings: read-out: Mu Receptor Affinity calc Ki, Table 3
# Protocol: Affinity at the μ receptor for compounds was obtained according to the following assay:
# Mu opioid receptor membrane solution was prepared by sequentially adding final concentrations of 0.075 μg/μl of the desired membrane protein, 10 μg/ml saponin, 3 μM GDP and 0.20 nM [^35S]GTPγS to binding buffer (100 mM NaCl, 10 mM MgCl2, 20 mM HEPES, pH 7.4) on ice. The prepared membrane solution (190 μl/well) was transferred to 96-shallow well polypropylene plates containing 10 μl of 20× concentrated stock solutions of agonist prepared in DMSO. Plates were incubated for 30 min at room temperature with shaking. Reactions were terminated by rapid filtration onto 96-well Unifilter GF/B filter plates (Packard) using a 96-well tissue harvester (Brandel) and followed by three filtration washes with 200 μl ice-cold binding buffer (10 mM NaH2PO4, 10 mM Na2HPO4, pH 7.4). Filter plates were subsequently dried at 50° C. for 2-3 hours. Fifty μl/well scintillation cocktail (MicroScint20, Packard) was added and plates were counted in a Packard Top-Count for 1 min/well.
# Data were analyzed using the curve fitting functions in GraphPad PRISM™, v.
row,SMILES,Ki
1,CC(C)CCC(C)N1CCC(N2C(=O)CCc3ccccc32)CC1 (centres unmarked),0.156 µM
